Ab-14 light chain CDR variants: yeast mating affinities

The measurements come from Li et al. 2023 (doi:10.1038/s41467-023-39022-2) through the FLAb antibody collection.

Target: peptide PDVDLGDISGINAS, taken from heptad repeat 2 (HR2) of SARS-CoV-2 spike.

Parent: Ab-14, a human scFv built as VH, the linker GGGGSGGGGSGGGGS, VL. Only the CDRs of the light chain vary.
VH: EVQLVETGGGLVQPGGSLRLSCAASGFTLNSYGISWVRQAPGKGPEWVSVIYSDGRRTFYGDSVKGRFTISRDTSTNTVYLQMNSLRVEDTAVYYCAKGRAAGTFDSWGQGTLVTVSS
VL: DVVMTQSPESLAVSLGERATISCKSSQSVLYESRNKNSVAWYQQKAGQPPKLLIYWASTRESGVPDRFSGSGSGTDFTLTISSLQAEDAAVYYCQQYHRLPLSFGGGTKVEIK

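The variants were designed computationally from a first round of random CDR variants and then made and measured. Several design methods are mixed in this list. Affinity was read by AlphaSeq, a pooled yeast mating assay with surface-displayed partners. Mating (16 h, 30 °C) was followed by selection of diploids and sequencing of their barcodes. Scores were corrected for input abundance and mapped to Kd with protein pairs of known affinity run in the same pool. The assay was run in six technical replicates.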

The parent's light chain CDRs are KSSQSVLYESRNKNSVA, WASTRES, QQYHRLPLS; each variant's own CDRs replace them letter for letter.
Variants here have more than six changes.
Values are log10 of the apparent Kd in nM; lower means stronger binding.
Where no diploid with the target was found in that replicate, the entry reads "nd": below detection, most likely a poor binder, though not proof of it.
Three control strains display no target. For all light chain designs, 4% of the pairings with them gave a signal, with a median of 2.64 and one signal in twenty below 1.59, so weak values seen in few replicates may be background.
The authors averaged sequences with at least three values out of six and counted those with two or fewer as poor binders.
The range of this assay differs from that of the first round, and the authors advise against merging the two.

With KSSGSVMMLSRNPNSVA / EATTRES / QQYHRLPLS the result was 0.36, -0.48, 0.21, -0.32, -0.38, 0.02.
With MFSYNLHDMGANKHSVA / DMNKVTG / QDYHRLPLS the result was 0.82, 0.63, 0.91, 0.13, 0.35, 1.15.
With MISQLFMYGSRNYNSIA / QAETREK / QQYDRLPLI the result was 3.13, 1.47, 2.23, 1.43, 1.92, 1.23.
With KIYYHGVDYLNEQNSIA / GQDIRQF / QQYYRLPLV the result was 0.32, 1.54, 0.60, 0.12, 0.48, 0.30.
With IVSQLMLWGKSAKNSIA / EAVTRLN / QQYDRLPLY the result was nd, 1.99, 2.64, nd, 2.43, nd.
With KLSMVTGHMSMSKNNVA / EMETREN / QQYDRLPLS the result was 0.74, 0.83, 0.46, 0.81, 1.04, 0.97.
With KFSAMLYHDNSEASSVA / EGLEVRE / QQYNRLPLG the result was nd, nd, nd, nd, nd, nd.
With HVSGLYTDESVREYNIA / ETSHVEE / QQYERLPLI the result was 0.58, 0.54, 0.51, 0.56, 0.51, 0.86.
With KLMQEMLYESRAANSVA / NASQREE / QQYHRLPLS the result was 0.02, 0.03, -0.46, -0.47, -0.13, -0.15.
With KISQMVRVGATANNSIA / EEQTRAK / QQYHRLPLS the result was 0.94, 0.70, 1.36, 0.73, 0.88, 0.69.
With KAVQGELYESRDWNNVA / DASTRLS / QQYHRLPLS the result was 0.44, 0.16, 0.15, 0.01, 0.20, 0.23.
With RLRLKELGMSYDANQVA / DSENRIK / QQYYRLPLT the result was 0.56, 0.22, 0.16, 0.26, 0.45, 0.51.
With HIQDDIGGAKEQFDNVA / STEERSY / QQYYRLPLS the result was 0.67, 0.72, 0.43, 0.57, 0.40, 0.80.
With ILSQSVLMGMHLKNSVA / QATVRFN / QQYHRLPLM the result was nd, nd, nd, nd, 2.17, nd.
With IVSQSVMGESRNLNSVA / QTSERNY / QQYDRLPLS the result was 0.54, 0.30, 0.48, 0.28, 0.61, 0.49.
With KVQQSEWGLSRNKNSVA / NASKRES / QQYHRLPLS the result was 0.77, 0.78, 0.66, 0.54, 0.69, 0.85.
With KVDQSEMLESRWKNSVA / SASTRIS / QQYHRLPLS the result was 1.05, 0.56, 0.95, 0.68, 0.45, 0.66.
With ISQQSAEYEGRQKKSVA / WASTREN / QQYHRLPLS the result was nd, nd, nd, nd, nd, nd.
With KILQEIENQSYNRNSVA / HQSTRED / QSYHRLPLS the result was 1.18, 1.44, 1.59, 1.29, 1.25, 1.39.
With KISMYLNKESKATNNVA / EMVNRES / QQYDRLPLS the result was nd, nd, nd, 2.82, 1.89, 2.09.
With KLSQLVLMEQRNHNSVA / SANTREE / QQYHRLPLS the result was -0.11, -0.19, -0.46, -0.67, -0.47, -0.05.
With RLRLKELGMSYNANQVA / DSENRIK / QQYYRLPLT the result was 2.00, 2.19, 1.61, 1.92, 2.27, 2.61.
With GILSQMDGPTEYKENVA / NGNERLP / QQYQRLPLT the result was 1.40, 0.98, 1.73, 2.00, 1.44, 1.28.
With NLTDAMASYTGDRHSIA / DKTVTAP / QQYSRLPIT the result was 0.30, -0.07, -0.04, 0.10, 0.06, -0.01.
With KLSATYRYESQNKNSIA / EMTTRED / QCYHRLPLS the result was 1.77, 0.83, 0.86, 1.86, 1.24, 1.14.
With KLGGVTEYEMRNKNSVA / QMTTREE / QQYHRLPLS the result was 0.25, 0.02, -0.07, -0.13, 0.00, 0.13.
With KIYAATMLESHDKNSIA / DLSNRGN / QQYHRLPLS the result was nd, nd, nd, nd, nd, nd.
With KLQQSDLYGSRNKNSVA / QASTRMV / QAYHRLPLS the result was 0.76, 0.63, 0.50, 0.47, 0.80, 0.77.
With HMSMLTLQGMRQRNSVA / QMTTREN / QQYDHLPLA the result was 0.03, 2.09, 0.92, 1.04, 3.09, 1.59.
With KMWDYEYGTNAMNSAIA / NASLESD / QQYDRLPLA the result was 1.13, 1.04, 1.33, 0.61, 0.49, 1.33.
With KIQQAVNYLSRVMNSVA / DNSTRES / QQYFRLPLS the result was -0.04, -0.14, -0.09, -0.19, -0.30, -0.10.

Repeated from above, the 2 best binders with a signal in all replicates:

With KLSQLVLMEQRNHNSVA / SANTREE / QQYHRLPLS the result was -0.11, -0.19, -0.46, -0.67, -0.47, -0.05.
With KLMQEMLYESRAANSVA / NASQREE / QQYHRLPLS the result was 0.02, 0.03, -0.46, -0.47, -0.13, -0.15.